How the values were obtained:
[1] = biological target: human muscarinic M1 receptor (Homo sapiens, UniProt P11229); test: Alphascreen Surefire phospho-ERK1/2 functional assay, M1
[2] = biological target: human muscarinic M2 receptor (Homo sapiens, UniProt P08172); test: Alphascreen Surefire phospho-ERK1/2 functional assay, M2; assay type: cell-based
[3] = biological target: human muscarinic M3 receptor (Homo sapiens, UniProt P20309); test: Alphascreen Surefire phospho-ERK1/2 functional assay, M3; assay type: cell-based
[4] = biological target: human muscarinic M4 receptor (Homo sapiens, UniProt P08173); test: Alphascreen Surefire phospho-ERK1/2 functional assay, M4; assay type: cell-based

Sequences of proteins named here, by UniProt entry; tags and fusion partners are left off.
UniProt P11229, whole entry: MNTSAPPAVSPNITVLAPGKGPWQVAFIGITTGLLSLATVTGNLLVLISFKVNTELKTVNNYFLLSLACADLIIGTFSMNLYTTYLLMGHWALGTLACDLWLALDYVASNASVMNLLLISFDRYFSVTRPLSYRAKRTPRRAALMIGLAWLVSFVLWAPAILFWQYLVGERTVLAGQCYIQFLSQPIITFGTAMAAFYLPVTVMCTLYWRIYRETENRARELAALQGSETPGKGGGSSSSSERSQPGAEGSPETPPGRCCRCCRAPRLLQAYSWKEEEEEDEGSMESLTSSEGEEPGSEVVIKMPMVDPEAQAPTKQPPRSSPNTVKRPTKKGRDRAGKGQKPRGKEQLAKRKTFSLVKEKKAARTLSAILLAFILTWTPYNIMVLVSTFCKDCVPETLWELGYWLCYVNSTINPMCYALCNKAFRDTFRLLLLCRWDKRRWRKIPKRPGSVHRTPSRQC
UniProt P08172, whole entry: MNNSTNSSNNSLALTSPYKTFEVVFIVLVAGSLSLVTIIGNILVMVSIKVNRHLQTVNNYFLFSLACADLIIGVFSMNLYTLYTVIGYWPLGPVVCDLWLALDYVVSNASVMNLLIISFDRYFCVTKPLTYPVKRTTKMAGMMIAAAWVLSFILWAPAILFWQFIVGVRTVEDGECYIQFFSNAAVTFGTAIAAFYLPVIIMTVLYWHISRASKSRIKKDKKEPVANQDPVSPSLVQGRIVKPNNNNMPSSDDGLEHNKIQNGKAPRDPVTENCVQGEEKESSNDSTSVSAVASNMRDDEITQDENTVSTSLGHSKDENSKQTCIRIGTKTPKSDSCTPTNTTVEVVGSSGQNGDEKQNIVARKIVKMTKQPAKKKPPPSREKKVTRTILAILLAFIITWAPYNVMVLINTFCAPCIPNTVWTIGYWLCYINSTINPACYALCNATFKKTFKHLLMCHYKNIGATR
UniProt P20309, whole entry: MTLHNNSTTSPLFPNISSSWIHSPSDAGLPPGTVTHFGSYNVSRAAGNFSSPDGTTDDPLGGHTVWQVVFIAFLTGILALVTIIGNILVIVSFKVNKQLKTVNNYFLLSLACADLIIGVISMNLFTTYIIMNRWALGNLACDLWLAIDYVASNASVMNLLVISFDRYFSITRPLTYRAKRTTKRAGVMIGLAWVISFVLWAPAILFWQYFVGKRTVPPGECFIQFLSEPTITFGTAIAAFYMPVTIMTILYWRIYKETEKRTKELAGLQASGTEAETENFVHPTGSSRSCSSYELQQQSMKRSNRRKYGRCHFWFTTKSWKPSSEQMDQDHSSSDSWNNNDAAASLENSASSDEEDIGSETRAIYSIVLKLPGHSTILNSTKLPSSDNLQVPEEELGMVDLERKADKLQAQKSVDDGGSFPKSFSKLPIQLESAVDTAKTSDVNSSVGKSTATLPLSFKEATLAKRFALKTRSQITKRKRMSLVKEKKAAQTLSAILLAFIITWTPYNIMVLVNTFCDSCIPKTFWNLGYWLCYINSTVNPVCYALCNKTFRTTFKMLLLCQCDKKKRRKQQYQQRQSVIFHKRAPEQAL
UniProt P08173, whole entry: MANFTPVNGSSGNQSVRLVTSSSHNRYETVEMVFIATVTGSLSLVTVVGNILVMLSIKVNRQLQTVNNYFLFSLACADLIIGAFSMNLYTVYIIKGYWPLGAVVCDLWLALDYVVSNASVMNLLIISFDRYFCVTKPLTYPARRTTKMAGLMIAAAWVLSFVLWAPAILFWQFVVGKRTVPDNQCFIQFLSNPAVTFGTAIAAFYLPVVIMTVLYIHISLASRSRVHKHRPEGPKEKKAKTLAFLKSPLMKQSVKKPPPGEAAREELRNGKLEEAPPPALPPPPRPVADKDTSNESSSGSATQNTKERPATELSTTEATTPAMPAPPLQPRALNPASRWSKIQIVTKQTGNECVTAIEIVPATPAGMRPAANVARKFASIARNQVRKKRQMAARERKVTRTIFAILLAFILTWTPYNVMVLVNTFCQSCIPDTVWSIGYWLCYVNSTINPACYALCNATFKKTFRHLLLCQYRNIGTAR

pEC50 M1 ([1]; CHO cells stably expressing human M1): 7.4
% Emax cf. ACh, M1 ([1]; CHO cells stably expressing human M1, relative to ACh): 46%
pEC50 M2 ([2]; CHO cells stably expressing human M2): 4.7
% Emax cf. ACh, M2 ([2]; CHO cells stably expressing human M2, relative to ACh): 1%
pEC50 M3 ([3]; CHO cells stably expressing human M3): 4.7
% Emax cf. ACh, M3 ([3]; CHO cells stably expressing human M3, relative to ACh): 2%
pEC50 M4 ([4]; CHO cells stably expressing human M4): 4.7
% Emax cf. ACh, M4 ([4]; CHO cells stably expressing human M4, relative to ACh): 5%
SMILES: CCOC(=O)N1CC2CC(C1)C(N1CCC3(CC1)CNC(=O)O3)C2 (single isomer, unassigned)

— patent US12202843B2, “Muscarinic receptor agonists” (Nxera Pharma UK Limited, priority 2014, dated 2025)
